This note sets out measurements from patent US4798834A, “Optionally substituted (3β-9,10-didehydro-2,3-dihydro ergoline as serotonergic function enhancement” (Eli Lilly and Company, priority 1987, dated 1989).

Sequences of proteins named here, by UniProt entry; tags and fusion partners are left off.
UniProt P14842, whole entry: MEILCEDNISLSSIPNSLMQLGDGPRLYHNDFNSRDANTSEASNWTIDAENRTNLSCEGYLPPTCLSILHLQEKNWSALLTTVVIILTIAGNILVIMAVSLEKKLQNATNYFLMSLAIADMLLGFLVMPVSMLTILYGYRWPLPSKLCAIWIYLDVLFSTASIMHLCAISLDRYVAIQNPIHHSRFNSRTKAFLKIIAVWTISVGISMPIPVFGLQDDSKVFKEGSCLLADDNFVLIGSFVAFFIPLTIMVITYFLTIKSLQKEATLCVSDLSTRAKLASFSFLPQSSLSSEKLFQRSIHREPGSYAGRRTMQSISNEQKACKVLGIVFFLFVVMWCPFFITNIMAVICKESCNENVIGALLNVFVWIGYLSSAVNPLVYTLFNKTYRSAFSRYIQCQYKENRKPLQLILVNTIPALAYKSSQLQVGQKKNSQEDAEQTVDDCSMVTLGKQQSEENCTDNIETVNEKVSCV

The target of this assay is T1, 5-HT2 receptor (Rattus norvegicus, UniProt P14842).
T1 construct: Rat brain frontal cortex from male Wistar rats; from tissue; host or cells: rat brain frontal cortex (male Wistar), membrane pellet
The assay can be described thus: binding to 5-HT2 sites ([3H]spiperone displacement, rat brain frontal cortex). Also noted: species or system rat (Wistar). The method, then: The pellet from the frontal cortex homogenates was suspended in 0.05 molar (M) Tris buffer containing 10 micromolar (μM) pargyline and 4 millimolar (mM) Ca^++ to give a final protein concentration of 250-350 microgram (μg) per sample. […] All radioactive ligands were obtained from New England Nuclear, Boston, Mass., USA. Specific binding was determined as the difference between total binding and nonspecific binding. Eleven concentrations of each of the compounds tested were used between 0.1 and 10,000 nM. All samples were run in duplicate.

A word on the IC50: it is the concentration at which inhibition is half-maximal. Low values mean higher potency, high ones lower potency.

Compound `O=C(CCCN1CCC2(CC1)C(=O)NCN2c1ccccc1)c1ccc(F)cc1` [spiperone, reference compound] displayed an IC50 of 1 nM.
